For test [1], the system named is Methanothermobacter thermautotrophicus. In words: Activation of Methanothermobacter thermautotrophicus recombinant Cab by stopped-flow CO2 hydrase method.
Test [2] concerns the target T1, Carbonic anhydrase (Saccharomyces cerevisiae S288c) (UniProt P53615).
T1 sequence (whole entry): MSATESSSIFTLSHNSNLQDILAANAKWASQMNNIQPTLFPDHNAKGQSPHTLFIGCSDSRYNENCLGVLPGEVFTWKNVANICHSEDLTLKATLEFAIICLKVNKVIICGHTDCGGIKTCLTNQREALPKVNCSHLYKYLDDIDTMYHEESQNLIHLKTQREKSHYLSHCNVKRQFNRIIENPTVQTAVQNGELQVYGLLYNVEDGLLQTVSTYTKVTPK
In words: Activation of yeast recombinant CA by stopped-flow CO2 hydrase method. The essentials:
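Yeast Nce103 gene PCR-amplified from genomic DNA and expressed in E. coli BL21(DE3), then purified. Activator and enzyme preincubated 15 min at room temperature. Stopped-flow CO2 hydration at 25 °C, 20 mM Tris pH 8.3, 20 mM NaClO4, 0.2 mM phenol red read at 557 nm over 10 s, CO2 1.7–17 mM. Initial rates taken from at least six traces, uncatalyzed rate subtracted. KA fitted from catalytic enhancement versus activator concentration; mean of three determinations.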

As for `N[C@@H](Cc1ccccc1)C(=O)O`, the Ka was 70 µM in test [1] and 86 µM in test [2].

On to `N[C@H](Cc1ccccc1)C(=O)O`, for which the Ka in test [1] turned out to be 10.3 µM; in test [2], 86 µM.
